System: S5 cells
Assay: Cry1Ab toxin-induced cytotoxicity / cell death, Trypan blue exclusion analysis
Assay type: cell-based, Trichoplusia ni
Conditions: S5 cells treated with inhibitor, switched to inhibitor-free buffer before Cry1Ab toxin treatment; percent of dead cells by Trypan blue staining

Q: O=[As]c1ccccc1 (stereo not shown) was tested. Which Cell death did it give?
A: Its Cell death is “+ (+ = 80 ± 5% cell death)”.
